Activity calls are given as the source filed them. The rule behind the calls is not given here.
Test system: MB002
Assay: Antiproliferative activity against human MB002 cells harboring TP53 mutation at codon 141 TGC-TTC assessed as reduction in cell viability measured after 3 days by CellTiter-Glo assay
Settings: time 3.0 day

SMILES: Cc1ccc(NC(=O)NCc2ccc3c(c2)CN(C2CCC(=O)NC2=O)C3=O)cc1Cl (stereo unspecified)
- Activity: Active

Source: ChEMBL document CHEMBL5036322 (J Med Chem, 2021)
